Data as given in publication doi:10.1101/2022.07.21.500952, “Mechanistic basis for targeting homologous recombination defective liver cancer via synthetic lethality” (bioRxiv, 2022).

Target: T1, His-WDR70 (112-654 aa) (UniProt Q9NW82 112-654)
T1 construct: also called recombinant His-WDR70; recombinant WDR70
T1 sequence (looked up): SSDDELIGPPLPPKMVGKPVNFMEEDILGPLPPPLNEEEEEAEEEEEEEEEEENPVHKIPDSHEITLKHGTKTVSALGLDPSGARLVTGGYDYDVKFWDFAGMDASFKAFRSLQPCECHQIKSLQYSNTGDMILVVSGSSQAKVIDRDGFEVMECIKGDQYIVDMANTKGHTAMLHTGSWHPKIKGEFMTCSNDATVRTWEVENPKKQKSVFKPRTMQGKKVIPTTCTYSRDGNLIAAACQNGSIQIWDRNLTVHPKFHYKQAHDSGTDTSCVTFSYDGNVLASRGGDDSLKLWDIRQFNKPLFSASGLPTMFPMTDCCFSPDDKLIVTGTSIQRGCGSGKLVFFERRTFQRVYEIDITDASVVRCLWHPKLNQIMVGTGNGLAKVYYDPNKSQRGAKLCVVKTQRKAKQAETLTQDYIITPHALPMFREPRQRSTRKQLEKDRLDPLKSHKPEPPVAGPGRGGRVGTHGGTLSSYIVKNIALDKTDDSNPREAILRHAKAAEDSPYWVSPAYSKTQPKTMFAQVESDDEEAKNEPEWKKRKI
Assay: pull-down; co-precipitation of purified recombinant His-WDR70 and Strep-PSMD5
Conditions: both partners purified

B1: Strep-PSMD5^Hsm3 (recombinant) (natural protein, UniProt Q16401 1-504, looked up)
chain: MAAQALALLREVARLEAPLEELRALHSVLQAVPLNELRQQAAELRLGPLFSLLNENHREKTTLCVSILERLLQAMEPVHVARNLRVDLQRGLIHPDDSVKILTLSQIGRIVENSDAVTEILNNAELLKQIVYCIGGENLSVAKAAIKSLSRISLTQAGLEALFESNLLDDLKSVMKTNDIVRYRVYELIIEISSVSPESLNYCTTSGLVTQLLRELTGEDVLVRATCIEMVTSLAYTHHGRQYLAQEGVIDQISNIIVGADSDPFSSFYLPGFVKFFGNLAVMDSPQQICERYPIFVEKVFEMIESQDPTMIGVAVDTVGILGSNVEGKQVLQKTGTRFERLLMRIGHQSKNAPVELKIRCLDAISSLLYLPPEQQTDDLLRMTESWFSSLSRDPLELFRGISSQPFPELHCAALKVFTAIANQPWAQKLMFNSPGFVEYVVDRSVEHDKASKDAKYELVKALANSKTIAEIFGNPNYLRLRTYLSEGPYYVKPVSTTAVEGAE
notes: also called recombinant PSMD5^Hsm3; purified PSMD5^Hsm3; source: recombinant, purified
binding result: binds
